{
  "sequences": {"note": "Amino acid sequences for entries named in this document (tags omitted).", "UniProt P09874, whole entry": "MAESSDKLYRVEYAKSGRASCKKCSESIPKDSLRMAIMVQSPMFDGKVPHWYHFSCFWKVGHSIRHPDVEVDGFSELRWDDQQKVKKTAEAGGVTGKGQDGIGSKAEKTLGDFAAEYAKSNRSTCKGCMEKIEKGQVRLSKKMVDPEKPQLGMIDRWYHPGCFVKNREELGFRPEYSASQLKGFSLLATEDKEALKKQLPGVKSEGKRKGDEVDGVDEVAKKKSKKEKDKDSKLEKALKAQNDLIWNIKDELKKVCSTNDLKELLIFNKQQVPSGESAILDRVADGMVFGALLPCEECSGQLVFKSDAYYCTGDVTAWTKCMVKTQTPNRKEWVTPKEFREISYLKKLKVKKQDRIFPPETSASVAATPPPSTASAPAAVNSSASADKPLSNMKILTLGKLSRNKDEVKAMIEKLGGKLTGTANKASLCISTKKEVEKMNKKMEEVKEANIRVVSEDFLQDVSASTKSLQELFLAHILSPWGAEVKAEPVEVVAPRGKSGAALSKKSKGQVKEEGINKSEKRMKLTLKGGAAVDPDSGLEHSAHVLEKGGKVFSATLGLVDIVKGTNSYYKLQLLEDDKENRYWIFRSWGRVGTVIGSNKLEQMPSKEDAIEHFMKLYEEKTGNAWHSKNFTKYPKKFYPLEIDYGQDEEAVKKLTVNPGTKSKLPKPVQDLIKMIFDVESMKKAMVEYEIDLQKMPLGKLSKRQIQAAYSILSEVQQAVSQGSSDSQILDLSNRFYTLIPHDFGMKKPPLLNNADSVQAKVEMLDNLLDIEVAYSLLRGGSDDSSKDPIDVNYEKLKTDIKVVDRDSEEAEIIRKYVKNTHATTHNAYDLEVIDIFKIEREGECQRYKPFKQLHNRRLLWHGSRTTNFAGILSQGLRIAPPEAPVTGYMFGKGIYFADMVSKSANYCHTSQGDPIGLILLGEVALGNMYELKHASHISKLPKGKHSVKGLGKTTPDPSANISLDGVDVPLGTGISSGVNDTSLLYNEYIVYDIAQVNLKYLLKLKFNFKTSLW"},
  "source": "patent EP4089093A1",
  "about": "(Eberhard Karls Universität Tübingen Medizinische Fakultät, priority 2021, dated 2022)",
  "origin": "cited, not measured here",
  "target": "PARP1 (Homo sapiens, UniProt P09874)",
  "details": "relative to talazoparib",
  "data": [
    {"smiles": "Cn1ncnc1[C@@H]1c2n[nH]c(=O)c3cc(F)cc(c23)N[C@H]1c1ccc(F)cc1", "note": "[LT-674]", "values": [
      {"measurement": "potency of the (8R, 9S)-enantiomer compared with the (8S, 9R)-enantiomer (talazoparib)", "value": "less active by several orders of magnitude"}
    ]}
  ]
}
